# Only a part is listed here, and it is no random draw. Some structures show a salt or complex split into parts, the way the source records it. Calls of active or inactive are those of the source.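 The calls were made as follows: active = inhibition above a per-plate cutoff, the mean of that plate's test compounds plus 3 SD (cut at about 27% in these data); inactive = the rest.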
# Sequences of proteins named here, by UniProt entry; tags and fusion partners are left off.
# UniProt P08912, whole entry: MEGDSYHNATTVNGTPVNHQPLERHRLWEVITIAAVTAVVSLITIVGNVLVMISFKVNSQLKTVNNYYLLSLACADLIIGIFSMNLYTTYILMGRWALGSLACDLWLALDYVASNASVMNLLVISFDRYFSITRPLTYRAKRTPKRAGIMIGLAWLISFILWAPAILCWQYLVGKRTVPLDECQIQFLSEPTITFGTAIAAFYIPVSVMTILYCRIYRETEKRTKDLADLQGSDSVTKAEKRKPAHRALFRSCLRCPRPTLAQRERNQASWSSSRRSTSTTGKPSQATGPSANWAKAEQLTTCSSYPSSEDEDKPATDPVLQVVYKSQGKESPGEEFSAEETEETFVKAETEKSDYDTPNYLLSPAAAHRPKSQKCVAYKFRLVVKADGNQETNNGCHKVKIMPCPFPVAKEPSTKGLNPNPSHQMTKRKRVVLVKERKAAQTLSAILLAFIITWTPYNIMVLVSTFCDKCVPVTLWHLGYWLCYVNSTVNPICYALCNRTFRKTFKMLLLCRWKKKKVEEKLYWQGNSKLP
# Target: Muscarinic acetylcholine receptor M5 (Homo sapiens) (UniProt P08912)
# Experiment: CHRM5 blockers of acetylcholine calcium response – CHO cells, Fluo-8 calcium fluorescence, primary screen (AID 624040);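 also: 0% = acetylcholine EC80 with DMSO and 100% = DMSO without agonist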
# Conditions: CHO-hM5 cells, ACh EC80, at 3 µM, stronger effect = higher value
row,SMILES,inhibition
1,CP(=O)(OCCOc1ccccc1)OCCOc1ccccc1,inactive: 2.86%
2,CCCCCCCCCCCCCCCC1C[N+](C)(C)CCOP(C)(=O)O1 (stereo not given),inactive: 21.8%
3,CP(=O)(Nc1ccc(Cl)cc1Cl)Oc1ccccc1 (stereo not given),inactive: 0.07%
4,COc1ccccc1OP(C)(=O)Nc1ccc(C)c(C)c1 (stereo not given),inactive: 1.89%
5,COc1ccc(OP(C)(=O)Nc2ccccc2Br)cc1 (stereo not given),inactive: -3.17%
6,Cc1cc(C)cc(OP(C)(=O)Nc2cccc(C(F)(F)F)c2)c1 (stereo not given),inactive: -18.6%
7,O=C1C(O)=C([N+](=O)[O-])C(=O)C(O)=C1[N+](=O)[O-],inactive: 15.8%
8,COc1ccccc1OP(C)(=O)Nc1ccc(C)cc1C (stereo not given),inactive: -2.23%
9,CP(=O)(Nc1ccccn1)Oc1ccccc1 (stereo not given),inactive: -11%
10,CCc1ccc(OP(C)(=O)O)cc1,inactive: -5.8%
11,O=[N+]([O-])c1cc([N+](=O)[O-])c(Nc2ccccn2)c([N+](=O)[O-])c1,inactive: 4.74%
12,Cc1c(NP(C)(=O)Oc2ccc(C(C)C)cc2)c(=O)n(-c2ccccc2)n1C (stereo not given),inactive: -0.22%
13,COc1ccc(OP(C)(=O)Nc2ccccn2)cc1 (stereo not given),inactive: -3.84%
14,COc1ccccc1OP(C)(=O)Nc1ccc(Br)cc1 (stereo not given),inactive: 7.44%
15,CN(C)C(=O)c1c([N+](=O)[O-])cc([N+](=O)[O-])cc1[N+](=O)[O-],inactive: -7.71%
16,CC(C)(C)c1ccc(OP(C)(=O)O)cc1,inactive: -1.24%
17,COc1ccccc1OP(C)(=O)Nc1ccccc1Br (stereo not given),inactive: 4.66%
18,CP(=O)(Nc1ccc(Cl)cc1)Oc1ccc(F)cc1 (stereo not given),inactive: 8.5%
19,COc1ccccc1OP(C)(=O)Nc1c(C)n(C)n(-c2ccccc2)c1=O (stereo not given),inactive: 3.06%
20,CCc1ccc(OP(C)(=O)Nc2cccnc2)cc1 (stereo not given),inactive: -9.01%
21,CP(=O)(Oc1ccccc1)N1CCOC1=O (stereo not given),inactive: -2.79%
22,COc1ccc(OP(C)(=O)Nc2ccc(Br)cc2)cc1 (stereo not given),inactive: -1.09%
23,CCOC(=O)c1ccc(NP(C)(=O)Oc2ccc(Cl)cc2)cc1 (stereo not given),inactive: -3.76%
24,CP(=O)(OC12CC3CC(CC(C3)C1)C2)OC12CC3CC(CC(C3)C1)C2,inactive: 3.25%
25,Cc1c(C(c2ccc3c(c2)OCO3)c2c(C)n(C)n(-c3ccccc3)c2=O)c(=O)n(-c2ccccc2)n1C.O=[N+]([O-])c1cc([N+](=O)[O-])c(O)c([N+](=O)[O-])c1,inactive: 11.6%

row,SMILES,inhibition
1,O=C(OC1CN2CCC1CC2)c1cccc(Cl)c1 (stereo not given),active: 32%
2,O=[N+]([O-])c1ccc(OP2(=O)COCCO2)cc1 (stereo not given),inactive: 1.44%
3,Cc1cc(-c2cccc3ccccc23)c(C)cn1.O=[N+]([O-])c1cc([N+](=O)[O-])c(O)c([N+](=O)[O-])c1,inactive: 5.15%
4,O=[N+]([O-])c1cc([N+](=O)[O-])c(NCC2CCS(=O)(=O)C2)c([N+](=O)[O-])c1 (stereo not given),inactive: -9.18%
5,COc1ccc(NP(C)(=O)Oc2ccccc2OC)cc1 (stereo not given),inactive: -5.73%
6,COc1ccc(OP(C)(=O)Nc2cccc(Br)c2)cc1 (stereo not given),inactive: 2.94%
7,CN(C)C1(CNC(=O)c2ccc(Cl)c(S(N)(=O)=O)c2)CCCCC1,inactive: 8.94%
8,Cc1ccccc1NP(C)(=O)Nc1ccccc1C,inactive: 0.61%
9,O=[N+]([O-])c1cc([N+](=O)[O-])c(C(F)(F)F)c([N+](=O)[O-])c1O,inactive: -5.03%
10,CP(=O)(Nc1ccc2c(c1)OCCO2)Oc1ccccc1 (stereo not given),inactive: -2.98%
11,CCOP(C)(=S)SCC(=O)NC(C)(CC)C(=O)O (stereo not given),inactive: -5.29%
12,CP(=O)(Nc1ccc(SC(F)(F)F)cc1)Oc1ccc(F)cc1 (stereo not given),inactive: 18.1%
13,COc1ccc2c(c1O)-c1c(O)c(OC)cc3c1[C@H](C2)[N+](C)(C)CC3.O=[N+]([O-])c1cc([N+](=O)[O-])c([O-])c([N+](=O)[O-])c1[O-],inactive: 14.6%
14,O=C(OC1CN2CCC1CC2)c1ccc([N+](=O)[O-])cc1 (stereo not given),inactive: 4.44%
15,CP(=O)(Nc1ccccc1F)Oc1ccccc1 (stereo not given),inactive: -5.68%
16,CC(C)c1ccc(OP(C)(=O)Nc2ccc(SC(F)(F)F)cc2)cc1 (stereo not given),inactive: 6.54%
17,O=[N+]([O-])c1cc([N+](=O)[O-])c(Nc2ccc(Cl)cc2)c([N+](=O)[O-])c1,active: 28.4%
18,CP(=O)(Nc1ccccc1)Oc1ccc(F)cc1 (stereo not given),inactive: -4.97%
19,CCCCCOc1ccc(NP(C)(=O)Oc2ccc(Cl)cc2Cl)cc1 (stereo not given),inactive: -12.8%
20,O=[N+]([O-])c1cc([N+](=O)[O-])c(OC2CCCCC2O)c([N+](=O)[O-])c1 (stereo not given),inactive: -7.99%
21,Cc1c([N+](=O)[O-])cc([N+](=O)[O-])c(Br)c1[N+](=O)[O-],inactive: 1.5%
22,O=C(OC1CN2CCC1CC2)c1ccccc1 (stereo not given),active: 70.4%
23,CCOC(=O)c1ccc(NP(C)(=O)Oc2ccc(F)cc2)cc1 (stereo not given),inactive: -2.73%
24,COc1ccc(OP(C)(=O)Nc2ccc(SC(F)(F)F)cc2)cc1 (stereo not given),inactive: 4.18%
25,CCN(CC)CCCNc1ccccc1[N+](=O)[O-].O=[N+]([O-])c1cc([N+](=O)[O-])c(O)c([N+](=O)[O-])c1,inactive: -1.69%

row,SMILES,inhibition
1,CC1=NCCc2c1[nH]c1ccccc21.O=[N+]([O-])c1cc([N+](=O)[O-])c(O)c([N+](=O)[O-])c1,inactive: -2.94%
2,O=C(O)c1cccc(Nc2c([N+](=O)[O-])cc([N+](=O)[O-])cc2[N+](=O)[O-])c1,inactive: -1.33%
3,Cc1ccc(C)c(NP(C)(=O)Oc2ccccc2)c1 (stereo not given),inactive: -10.6%
4,CP(=O)(Nc1cccc(Br)c1)Oc1ccccc1 (stereo not given),inactive: 2.75%
5,Cc1cc(C)cc(OP(C)(=O)Nc2ccccn2)c1 (stereo not given),inactive: -7.64%
6,CCOC(=O)c1ccc(NP(C)(=O)Oc2cc(C)cc(C)c2)cc1 (stereo not given),inactive: 1.48%
7,Cc1cc(C)cc(OP(C)(=O)Nc2ccc(C)cc2C)c1 (stereo not given),inactive: 5.61%
8,COc1ccccc1OP(C)(=O)Nc1cccc(Br)c1 (stereo not given),inactive: 4.86%
9,COc1cc(C(=O)NCC2(N3CCOCC3)CCCCC2)cc(Cl)c1OC(C)C,inactive: 8.22%
10,Cc1nc2ccc3ccccc3c2s1.O=[N+]([O-])c1cc([N+](=O)[O-])c(O)c([N+](=O)[O-])c1,inactive: -5.18%
11,O=[N+]([O-])c1cc([N+](=O)[O-])c(-c2cnn(-c3ccccc3)c2)c([N+](=O)[O-])c1,inactive: 16.3%
12,CN(Cc1cccnc1)C(=O)COc1ccc(Cl)c(Cl)c1.O=[N+]([O-])c1cc([N+](=O)[O-])c(O)c([N+](=O)[O-])c1,inactive: 3.12%
13,O=[N+]([O-])c1cc([N+](=O)[O-])c(-n2nnc3ccccc32)c([N+](=O)[O-])c1,inactive: -3.53%
14,COc1ccc(-c2ccccn2)cc1.O=[N+]([O-])c1cc([N+](=O)[O-])c(O)c([N+](=O)[O-])c1,inactive: -3.03%
15,CP(=O)(Nc1ccc(SC(F)(F)F)cc1)Oc1ccccc1 (stereo not given),inactive: 15.3%
16,CCCOc1ccc(NP(C)(=O)Oc2ccc(Cl)cc2)cc1 (stereo not given),inactive: -1.85%
17,COc1ccccc1OP(C)(=O)Nc1c(C)cccc1C (stereo not given),inactive: 1.39%
18,CCOC(=O)C(CC)C1=NC(C)(C)Cc2ccccc21.O=[N+]([O-])c1cc([N+](=O)[O-])c(O)c([N+](=O)[O-])c1 (stereo not given),inactive: 6.39%
19,O=[N+]([O-])c1cc([N+](=O)[O-])c(Nc2nnnn2CCO)c([N+](=O)[O-])c1,inactive: 5.52%
20,CN(C)C1(CNC(=O)c2ccc(S(C)(=O)=O)cc2)CCCCC1,inactive: -1.55%
21,CC1=C2N=C(C=C3N=C(C(C)=C4[N-][C@@](C)([C@@H]5N=C1[C@](C)(CCC(=O)NC[C@@H](C)OP(=O)([O-])O[C@H]1[C@@H](O)[C@@H](n6cnc7cc(C)c(C)cc76)O[C@@H]1CO)[C@H]5CC(N)=O)[C@@](C)(CC(N)=O)[C@@H]4CCC(N)=O)[C@@](C)(CC(N)=O)[C@@H]3CCC(N)=O)C(C)(C)[C@@H]2CCC(N)=O.[C-]#N.[Co+3],inactive: 3.96%
22,CP(=O)(Nc1ccccc1Br)Oc1ccccc1 (stereo not given),inactive: -2.71%
23,COc1ccccc1OP(C)(=O)Nc1ccccc1 (stereo not given),inactive: 3.82%
24,CP(=S)(Nn1cnnc1)Oc1ccccc1 (stereo not given),inactive: -10.7%
25,CCCCOc1ccc(C(=O)NCC2(N3CCCCC3)CCCCC2)cc1OC,inactive: 14.9%

row,SMILES,inhibition
1,CP(=O)(Nc1ccccn1)Oc1ccc(Cl)cc1 (stereo not given),inactive: 1.01%
2,CCOC(=O)c1ccc(NP(C)(=O)Oc2ccc(OC)cc2)cc1 (stereo not given),inactive: -1.53%
3,O=[N+]([O-])c1cc([N+](=O)[O-])c(O)c([N+](=O)[O-])c1.c1ccc(Oc2ccncc2)cc1,inactive: -4.87%
4,CCOP(C)(=S)SCC(=O)NC(C)C(=O)O (stereo not given),inactive: 1.21%
5,Cc1cc(C)cc(OP(C)(=O)Nc2ccc(SC(F)(F)F)cc2)c1 (stereo not given),inactive: -3.99%
6,CCc1ccc(OP(C)(=O)N2CCN(c3ccc([N+](=O)[O-])cc3)CC2)cc1 (stereo not given),inactive: 21.9%
7,O=C(COc1ccccc1)OC1CN2CCC1CC2 (stereo not given),active: 33.5%
8,CP(=O)(NC(=O)Nc1ccccc1)Oc1ccccc1 (stereo not given),inactive: 3.5%
9,CP(=O)(Oc1ccccc1)OC(c1ccccc1)C(F)(F)F (stereo not given),inactive: 12.1%
10,Cc1ccc(Nc2c([N+](=O)[O-])cc([N+](=O)[O-])cc2[N+](=O)[O-])cc1,inactive: 11.9%
11,Cc1cccc(C)c1OP(C)(=O)Nc1ccc(SC(F)(F)F)cc1 (stereo not given),inactive: -5.76%
12,CP(=O)(Nc1ccc(SC(F)(F)F)cc1)Oc1ccc(Cl)cc1 (stereo not given),inactive: 0.82%
13,COc1ccccc1-c1ccccn1.O=[N+]([O-])c1cc([N+](=O)[O-])c(O)c([N+](=O)[O-])c1,inactive: -9.53%
14,O=C(OC1CN2CCC1CC2)C12CC3CC(CC(C3)C1)C2 (stereo not given),active: 97.9%
15,Cc1cc(C)cc(OP(C)(N)=O)c1 (stereo not given),inactive: -6.85%
16,COc1ccc(OP(C)(=O)Nc2cccc(F)c2)cc1 (stereo not given),inactive: 0.63%
17,COc1ccccc1OP(C)(=O)Nc1cc(Cl)ccc1C (stereo not given),inactive: -8.74%
18,Cc1ccc(NP(C)(=O)Oc2ccccc2)c(C)c1 (stereo not given),inactive: -0.79%
19,COc1ccccc1OP(C)(=O)Nc1ccc(C)cc1 (stereo not given),inactive: -1.17%
20,CCOC(=O)c1ccc(NP(C)(=O)Oc2ccccc2)cc1 (stereo not given),inactive: -2.77%
21,O=[N+]([O-])c1ccc2c(c1)C=Nc1ccccc1O2,inactive: 5.13%
22,Cc1cccc(C)c1OP(C)(N)=O (stereo not given),inactive: -4.71%
23,CC(C)(C)c1ccc(OP(C)(=O)Nc2ccc(SC(F)(F)F)cc2)cc1 (stereo not given),inactive: 11.8%
24,COc1cc(C(=O)NCC2(N3CCOCC3)CCCCC2)ccc1OCC(C)C,inactive: -5.47%
25,O=[N+]([O-])c1cc([N+](=O)[O-])c(Nc2cccnc2)c([N+](=O)[O-])c1,inactive: 13.4%
